Measurements published in PubChem BioAssay AID1851 (National Center for Advancing Translational Sciences (NCATS), 2009).
What follows is the remainder of the data, with few or none of the hits. Records with an inconclusive call do not appear. Active and inactive are the calls of the source. Calls follow the shape of the dose curve; as a rule, active = well fitted curve in the direction sought with a large enough effect; inconclusive = small, poorly fitted or top-dose-only effect, or effect the other way; inactive = no such curve, though single readings can be large or run the other way.

Chains of the proteins cited; added tags and fusions are not shown.
UniProt P10635, whole entry, looked up: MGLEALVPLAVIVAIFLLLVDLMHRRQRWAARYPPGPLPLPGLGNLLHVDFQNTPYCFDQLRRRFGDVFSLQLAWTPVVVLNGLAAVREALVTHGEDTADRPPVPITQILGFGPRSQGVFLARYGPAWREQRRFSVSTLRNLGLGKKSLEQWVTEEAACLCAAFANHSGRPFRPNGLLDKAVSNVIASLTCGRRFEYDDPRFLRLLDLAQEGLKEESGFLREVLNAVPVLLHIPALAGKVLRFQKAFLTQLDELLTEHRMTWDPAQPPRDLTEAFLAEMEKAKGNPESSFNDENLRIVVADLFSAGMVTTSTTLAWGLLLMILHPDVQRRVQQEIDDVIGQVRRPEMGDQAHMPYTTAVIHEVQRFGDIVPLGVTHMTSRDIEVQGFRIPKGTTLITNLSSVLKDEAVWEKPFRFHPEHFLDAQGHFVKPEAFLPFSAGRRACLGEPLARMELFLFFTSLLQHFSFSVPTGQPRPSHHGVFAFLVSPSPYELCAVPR

Molecular target: Cytochrome P450 2D6 (Homo sapiens) (UniProt P10635)
Test: Cytochrome panel assay with activity outcomes
Details: recombinant CYP, pro-luciferin dealkylation, luminescence, p450-cyp2d6; at 57.1 µM (top of the series) unless noted
% is scaled to controls: 0 for no effect and ±100 for the full control effect.

SMILES | activity, negative = inhibition
O=C(Nc1cccc(F)c1)N1CCC2(CC1)CCN(C(=O)Oc1ccccc1)CC2 | inactive: -4.74%
CN(CCC(=O)O)C1=Nc2ccc(Cl)cc2C(c2ccccc2)=[N+]([O-])C1 | inactive: 14.4% [at 11.4 µM]
